SMILES strings stand for the structures. pIC50: −log10 of the molar value.

Amino acid sequences for entries named in this document (tags omitted).
UniProt P02550, whole entry, looked up: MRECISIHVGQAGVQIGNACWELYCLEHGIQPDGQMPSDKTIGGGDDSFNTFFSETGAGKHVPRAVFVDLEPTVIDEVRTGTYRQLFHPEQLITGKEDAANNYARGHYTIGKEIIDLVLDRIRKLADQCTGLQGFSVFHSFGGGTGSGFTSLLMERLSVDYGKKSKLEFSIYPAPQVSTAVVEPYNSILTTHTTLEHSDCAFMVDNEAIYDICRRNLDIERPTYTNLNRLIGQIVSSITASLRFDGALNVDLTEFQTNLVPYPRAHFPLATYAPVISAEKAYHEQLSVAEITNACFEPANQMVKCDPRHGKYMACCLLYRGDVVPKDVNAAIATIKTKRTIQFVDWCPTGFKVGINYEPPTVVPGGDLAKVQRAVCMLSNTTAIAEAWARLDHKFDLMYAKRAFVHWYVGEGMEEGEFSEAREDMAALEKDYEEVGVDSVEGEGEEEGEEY

These results are taken from BindingDB's records for doi:10.1111/j.1747-0285.2008.00729.x (The Ohio State University, 2008).

The target of the test is Tubulin alpha-1A chain (Sus scrofa, UniProt P02550).
Compound `CCOc1cccc(C(=O)Nc2ccc(S(=O)(=O)N3CCCC3)cc2)c1` [Chembridge No 7946770, Class 1, 9] showed a pIC50 of 4.17.

The compound `CCN(CC)S(=O)(=O)c1ccc(NC(=O)c2ccccc2SC)cc1` [Chembridge No 7960631, Class 1, 10] had a pIC50 of 4.17.

`COc1cc([C@@H]2c3cc4c(cc3[C@H](O)[C@H]3COC(=O)[C@H]23)OCO4)cc(OC)c1OC` [podophyllotoxin] showed a pIC50 of 5.85.

The pIC50 is the IC50 on a negative log10 scale, so that one unit is a factor of ten.
